# Results: PubChem BioAssay AID761 (NMMLSC, 2007)
# By UniProt entry, the sequences of proteins in these tests, tags left out.
# UniProt P60953, whole entry: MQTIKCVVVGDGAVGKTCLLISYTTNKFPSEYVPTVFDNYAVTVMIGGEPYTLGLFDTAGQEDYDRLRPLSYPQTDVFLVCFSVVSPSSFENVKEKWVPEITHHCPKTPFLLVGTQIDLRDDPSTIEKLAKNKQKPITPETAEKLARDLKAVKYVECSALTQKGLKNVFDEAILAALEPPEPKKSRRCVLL
# Only a part is listed here, and it is no random draw. Active and inactive are the calls of the source.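 Rule for the calls: active = percent activity GTP binding at least 20 points away from the 100% baseline, either down as inhibitor or up as activator; inconclusive = compound flagged as likely green fluorescent from well-wide comparison; inactive = the rest.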
# Biological target: Cell division control protein 42 homolog (Homo sapiens) (UniProt P60953)
# Assay: wildtype Cdc42 fluorescent GTP binding changes, either direction – biochemical, multiplex bead flow cytometry, Bodipy-GTP, primary screen (AID 761);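 note: median bead fluorescence of bound Bodipy-FL-GTP at 100 nM; 0% = excess unlabeled GTP control and 100% = no compound control; below 100% means less GTP binding so inhibitor and above means activator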
# Conditions: GST-Cdc42 beads, at 10 µM, actives lie on both sides
row,Compound,percent activity (GTP binding)
1,O=C(OC1CN2CCC1CC2)C1c2ccccc2C=Cc2ccccc21 (centres undefined),inactive: 99%
2,N/C(=N\O)c1c(N)no[n+]1[O-],inactive: 102%
3,COc1ccc(C(=O)NCC2(N3CCOCC3)CCCCC2)cc1OC,inactive: 102%
4,c1ccc(CN2CCC(Nc3ccccc3)CC2)cc1,inactive: 99%
5,N#Cc1ccc(C(=O)NCC2(N3CCCCC3)CCCCC2)cc1,inactive: 97%
6,CN(C)c1ccc(C(=O)NCC2(N3CCCCC3)CCCCC2)cc1,inactive: 95%
7,CCN1CCC(Nc2cccc(F)c2)CC1,inactive: 102%
8,Fc1ccccc1NC1CCN(Cc2ccccc2)CC1,inactive: 104%
9,COc1cc(OC)cc(C(=O)NCC2(N3CCOCC3)CCCCC2)c1,inactive: 96%
10,CC(C)(C)OC(=O)N1CCC(Nc2ccccc2)CC1,inactive: 104%
11,CCOc1ncccc1C(=O)NCC1(N2CCOCC2)CCCCC1,inactive: 100%
12,CCOC(=O)N1CCC(Nc2ccc(OC)cc2)CC1,inactive: 100%
13,O=C(OC1CN2CCC1CC2)C1c2ccccc2Oc2ccccc21 (centres undefined),inactive: 104%
14,O=C(NCC1(N2CCOCC2)CCCCC1)c1cc2ccccc2o1,inactive: 101%
15,COc1ccc(C(=O)NCC2(N3CCCCC3)CCCCC2)c(OC)c1OC,inactive: 98%
16,COc1ccc(NC2CCN(CCc3ccccc3)CC2)c(OC)c1,inactive: 100%
17,CN1CCN(CCOC(=O)C(O)(c2ccccc2)c2ccccc2)CC1,inactive: 104%
18,COc1ccc(NC2CCN(C(=O)OC(C)(C)C)CC2)cc1,inactive: 97%
19,O=C(NCC1(N2CCOCC2)CCCCC1)c1cc(=O)[nH]c2ccccc12,inactive: 99%
20,O=C(NCC1(N2CCCCC2)CCCCC1)c1cccc([N+](=O)[O-])c1,inactive: 95%
21,N#CC1(Nc2ccccc2)CCN(CCc2ccccc2)CC1,inactive: 106%
22,CN(C)c1cccc(C(=O)NCC2(N3CCCCC3)CCCCC2)c1,inactive: 99%
23,COc1ccc(CN(CCCl)CCCl)cc1Cl,inactive: 98%
24,CC(C)c1ccc(NC2CCN(C(=O)OC(C)(C)C)CC2)cc1,inactive: 94%
